Ab-14 light chain CDR variants: yeast mating affinities

Values reported by Li et al. 2023, doi:10.1038/s41467-023-39022-2 (FLAb copy).

All variants were tested on one target, the spike HR2 peptide PDVDLGDISGINAS (SARS-CoV-2).

Each scFv is VH, a (GGGGS)3 linker, VL, as in the parent Ab-14, and differs from it in the CDRs of the light chain only.
VH: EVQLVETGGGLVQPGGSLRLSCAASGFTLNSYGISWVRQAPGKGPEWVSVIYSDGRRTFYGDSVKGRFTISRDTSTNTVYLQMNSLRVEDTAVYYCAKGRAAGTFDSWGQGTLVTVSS
VL: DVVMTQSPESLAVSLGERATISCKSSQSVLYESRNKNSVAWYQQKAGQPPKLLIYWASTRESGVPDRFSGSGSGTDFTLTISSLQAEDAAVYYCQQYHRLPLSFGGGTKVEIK

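The variants were designed computationally from a first round of random CDR variants and then made and measured. Several design methods are mixed in this list. The assay is AlphaSeq: two haploid yeast populations carry antibody and antigen on their surface. Binding brings cells together so that they mate, and sequencing counts the barcode pairs among the diploids. Read counts were normalised to the haploid input and turned into Kd by a linear fit to BCL2-family pairs of known affinity, for each replicate. There are six technical replicates.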

Substitutions are numbered in sequence along the VL above, starting at 1 (not Kabat).
Variants here have at most six changes.
Values are apparent Kd, the geometric mean of the replicates that gave a signal; lower means stronger binding.
"no signal" means that the variant was in the library but no mating with the target was seen in any replicate; the authors take this as a sign of poor binding, and no number exists.
In the paper, a design with two or fewer of six values counts as a poor binder.
The range of this assay differs from that of the first round, and the authors advise against merging the two.
Background: pairings of all light chain designs with three empty control strains gave a value in 4% of cases (median 430 nM, 5th percentile 38 nM). Values in that range, when seen in few replicates, are hard to tell from nonspecific mating.

changes	Kd (apparent)	replicates with signal
S26R+R34E+W56K+Q96D	3.3 nM	6 of 6
P101S	no signal	0 of 6
S25L+S26E+V29Q+L30E+W56N+T59Q	580 pM	6 of 6
K24S+E32S+W56Q	160 nM	6 of 6
V29N+N35Q	no signal	0 of 6
S25L+Y31M+N35W+W56D+S62E	1.5 nM	6 of 6
K24V+S33D	5.4 nM	6 of 6
S25L+R34M+W56N	1.4 nM	6 of 6
S26A+Q27Y+V29E+L30G+W56S+E61S	6.9 nM	6 of 6
K24Q+Q27Y+V29I+S33K+W56N+H98Q	4.4 nM	6 of 6
S25V+R34G+N35T+W56N+T59F	2.1 nM	6 of 6
V29D+Y31D+W56M	80 nM	1 of 6
Y31D+R34F+S62D	13 nM	6 of 6
S25L+K36W+S38N+W56N	320 pM	6 of 6
S25L+S28M+V29W+W56N	330 pM	6 of 6
S25L+S26Y+W56N+S62D	1.5 nM	6 of 6
S26Q+V29Q+L30E+W56H+S62D	720 pM	6 of 6
V29F+A40V+W56G+S62E+P101T	no signal	0 of 6
S25Q+S28A+V29F+W56D	1.0 nM	6 of 6
S26P+W56N+S62D+Q96S	2.1 nM	6 of 6
S25L+V29W+L30E+W56N+S62Q	1.5 nM	6 of 6
L30P	56 nM	5 of 6
Y31K+T59H+E61P+S103K	490 nM	3 of 6
S25I+S33G+T59V+S62R	24 nM	6 of 6
S25V+Q27S+E32D+S62Y+S103L	7.3 nM	6 of 6
S26N+N35T+V39I+A57T	6.1 µM	1 of 6
S25L+L30G+S33E+W56N+T59Q	1.4 nM	6 of 6
S25I+S38G+Y97I+L100M+S103C	no signal	0 of 6
S25V+N37K+W56D	600 pM	6 of 6
L30G+S38N+E61H+H98F	14 nM	6 of 6
S25F+V29T+K36F	6.4 nM	6 of 6
S25M+P101I	no signal	0 of 6
S25L+S26Q+V29W+L30G+W56N+T59Q	770 pM	6 of 6
S26G+S28G+W56G+T59Q+E61Y	2.3 nM	6 of 6
S25M+S26L+S28A+W56H+S62D+R99Q	1.3 nM	6 of 6
T59W+H98S	4.9 µM	1 of 6
S25I+Q27R+V29D+W56S	660 pM	6 of 6
K24N+S25W+V29W+W56G+A57G+S58N	380 pM	6 of 6
Q27I+V29H+K36T+W56E	2.1 nM	6 of 6
V29Y+R34M+W56E	1.2 nM	6 of 6
K24H+S25T+Q27P+K36C+W56N+Y97K	160 nM	4 of 6
V29G+Y31A+N35Q+S62D	220 nM	6 of 6
Y31N+N35V+W56N+R99C	300 nM	4 of 6
S25L+S33D+N35M+W56N	1.5 nM	6 of 6
Y31N+K36S	50 nM	3 of 6
S25L+Q27D+W56D	550 pM	6 of 6
W56E+A57C+S62D	19 nM	6 of 6
S25L+V29W+W56N+S62K	860 pM	6 of 6
S25L+W56Q+R60P	660 pM	6 of 6
S25L+V29W+K36F+W56N+T59Q	2.1 nM	6 of 6
S25F+S28W+V29Q+N35T+W56N	1.9 nM	6 of 6
S25L+S26Y+V29W+W56N	800 pM	6 of 6
W56N+E61P	3.9 nM	6 of 6
S25F+Q27D+V29E+Y31L+N35T+W56N	1.5 nM	6 of 6
S25L+V29E+W56D	400 pM	6 of 6
K24H+Q27P+K36H+W56N	1.3 nM	6 of 6
Y31S+K36E+E61N+S62R+S103F	110 nM	4 of 6

The closing 6 entries, repeated:

| changes | Kd (apparent) | replicates with signal |
|---|---|---|
| S25L+S26Y+V29W+W56N | 800 pM | 6 of 6 |
| W56N+E61P | 3.9 nM | 6 of 6 |
| S25F+Q27D+V29E+Y31L+N35T+W56N | 1.5 nM | 6 of 6 |
| S25L+V29E+W56D | 400 pM | 6 of 6 |
| K24H+Q27P+K36H+W56N | 1.3 nM | 6 of 6 |
| Y31S+K36E+E61N+S62R+S103F | 110 nM | 4 of 6 |